Measurements reported in ChEMBL document CHEMBL3885881, “DrugMatrix”.

Species: Rattus norvegicus
Assay: DrugMatrix - Regimen: Daily Repeat
Assay type: toxicity, organism-based, Sprague-Dawley
Set-up: regimen Daily Repeat, gender Male, age 6-8 weeks
Settings: in vivo
[1] = po, […], 72 h, tissue Plasma, route oral GAVAGE, dose 0.77 mg/Kg, dose level Low, time 3 day, vehicle .5 % CMC
[2] = po, […], 72 h, tissue Plasma, route oral GAVAGE, dose 7.5 mg/Kg, dose level High, time 3 day, vehicle .5 % CMC
[3] = ip, 0 mg/kg, […], tissue Plasma, route intraperitoneal, dose level Control, time 14 day, vehicle 100 % SALINE

Sequence: COLISTIN
- ALBUMIN (po, 0 mg/kg, 72 h, tissue Plasma, route oral GAVAGE, dose level Control, time 3 day, vehicle 100 % WATER): 3.75 G/DL
- MEAN CORPUSCULAR HEMOGLOBIN CONCENTRATION (po, 0 mg/kg, 120 h, tissue Blood, route oral GAVAGE, dose level Control, time 5 day, vehicle 100 % WATER): 39.44 G/DL
- ALBUMIN (po, 0 mg/kg, 120 h, tissue Plasma, route oral GAVAGE, dose level Control, time 5 day, vehicle 100 % WATER): 3.73 G/DL
- ALBUMIN (po, 24 mg/kg, 120 h, tissue Plasma, route oral GAVAGE, dose level Low, time 5 day, vehicle 100 % WATER): 3.73 G/DL

Sequence: IVERMECTIN
- ALBUMIN [1]: 3.47 G/DL
- GLUCOSE [1]: 161.67 mg/dL
- ALBUMIN [2]: 3.63 G/DL
- GLUCOSE [2]: 169 mg/dL

Sequence: GENTAMICIN
- ALBUMIN [3]: 4.05 G/DL
- URIC ACID [3]: 1.57 mg/dL
- CHLORIDE (ip, 0 mg/kg, […], tissue Plasma, route intraperitoneal, dose level Control, time 28 day, vehicle 100 % SALINE): 105.4 MEQ/L
- HEMATOCRIT (sc, 34 mg/kg, 120 h, tissue Blood, route subcutaneous, dose level Low, time 5 day, […]): 37.5%
